Chains of the proteins cited; added tags and fusions are not shown. Lines headed by an entry give the natural chain unless they say otherwise; changes in a name come on top.
UniProt O14684: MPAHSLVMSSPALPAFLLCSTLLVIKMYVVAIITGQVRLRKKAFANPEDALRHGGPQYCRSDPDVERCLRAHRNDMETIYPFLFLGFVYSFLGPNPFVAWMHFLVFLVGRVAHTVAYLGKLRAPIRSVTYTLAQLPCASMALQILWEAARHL

pIC50: −log10 of the molar value.
What follows are compounds tested against human PTGES (Homo sapiens (Human), UniProt O14684) (assay: Human PTGES biochemical enzyme inhibition assay (conversion of PGH2 to PGE2, TR-FRET)). Settings: Enzymatic conversion of PGH2 to PGE2.
Work on Cc1c(NC(=O)C(c2ccc(-c3cncc(C(F)(F)F)c3)cc2)C2CCC2)cccc1C(C)CC(=O)O (single isomer, unassigned; stereoisomer 1) [Example 131, 3-{3-[(Cyclobutyl{4-[5-(trifluoromethyl)pyridin-3-yl]phenyl}acetyl)amino]-2-methylphenyl}butanoic acid, Stereoisomer 1] yielded a pIC50 of 5.99.
Cc1c(NC(=O)C(c2ccc(-c3cncc(C(F)(F)F)c3)cc2)C2CCC2)cccc1C(C)CC(=O)O (single isomer, unassigned; stereoisomer 2) [Example 132, 3-{3-[(Cyclobutyl{4-[5-(trifluoromethyl)pyridin-3-yl]phenyl}acetyl)amino]-2-methylphenyl}butanoic acid, Stereoisomer 2] was tested, and the pIC50 was 7.41.
Cc1c(NC(=O)C(c2ccc(-c3cncc(C(F)(F)F)c3)cc2)C2CCC2)cccc1C(C)CC(=O)O (single isomer, unassigned; stereoisomer 3) [Example 133, 3-{3-[(Cyclobutyl{4-[5-(trifluoromethyl)pyridin-3-yl]phenyl}acetyl)amino]-2-methylphenyl}butanoic acid, Stereoisomer 3] gave a pIC50 of 5.75.
With Cc1c(NC(=O)C(c2ccc(-c3cncc(C(F)(F)F)c3)cc2)C2CCC2)cccc1C(C)CC(=O)O (single isomer, unassigned; stereoisomer 4) [Example 134, 3-{3-[(Cyclobutyl{4-[5-(trifluoromethyl)pyridin-3-yl]phenyl}acetyl)amino]-2-methylphenyl}butanoic acid, Stereoisomer 4] the pIC50 was 8.12.

From patent US10172814B2, “Substituted pyridyl-cycloalkyl-carboxylic acids, compositions containing them and medical uses thereof” (BAYER PHARMA AKTIENGESELLSCHAFT, priority 2014, dated 2019)
